Legend:
[1] = system: IL2 and IL15 signaling pathways (STAT5 phosphorylation) in spleen cells; assay: Flow cytometry detection of T cell pSTAT5 expression after cytokine stimulation, IL2RB/IL2RG double-gene humanized mice; format: cell-based, mouse; conditions: for T cell pSTAT5 expression: spleen, 200 U human IL2, 30 minutes
Method: (§1) The IL2 and IL15 signaling pathways in IL2RB/IL2RG double-gene humanized mice were detected by flow cytometry. Specifically, three 6-week old female C57BL/6 wild-type mice (+/+), three IL2RB/IL2RG double-gene humanized heterozygous mice (H/+; H/+), and three IL2RB/IL2RG double-gene humanized homozygous mice (H/H; H/H) were selected. Spleen tissues were collected and stimulated by 200 U human IL2 (Human IL-2 Protein, Tag Free), 10 ng/ml human IL15/IL15RA complex (Human IL-15 Protein, premium grade and Human IL-15 R alpha/CD215 Protein, Fc Tag mixed at a volume ratio of 1:1), or 10 ng/ml mouse IL15/IL15RA complex (Recombinant Mouse IL-15 Protein and Recombinant Mouse IL-15R alpha Fc Chimera Protein, CF mixed at a volume ratio of 1:1) for 30 minutes. eBioscience™ Fixable Viability Dye eFluor™ 780, Brilliant Violet 711™ anti-mouse TCR β chain Antibody, Phospho-Stat5 (Tyr694) (D47E7) XP® Rabbit mAb (used as primary antibodies) and Anti-rabbit IgG (H+L), F(ab′)2 Fragment (Alexa Fluor® 488 Conjugate) (used as a secondary antibody) were used to fix and stain the cells, followed by flow cytometric detection. No primary antibody was added to the corresponding secondary antibody control groups.

[2] = system: IL2 signaling pathway (STAT5 phosphorylation) in mouse splenocytes; assay: Flow cytometry detection of pSTAT5 expression in T cells and NK cells after IL2 stimulation, IL2RB/IL2RG/IL15/IL15RA four-gene humanized mice; format: cell-based; conditions: for pSTAT5 expression (CD4+ T cell) / pSTAT5 expression (CD8a+ cell) / pSTAT5 expression (NK1.1+ cell): splenocytes, 10 μg/mL IL2
Method: as §1
The IL2 and IL15 signaling pathways in IL2RB/IL2RG/IL15/IL15RA four-gene humanized mice were detected by flow cytometry. Similar to the IL2 and IL15 signaling pathway detection method for IL2RB/IL2RG double-gene humanized mice described herein, either 10 μg/mL human IL2 or mouse IL2 (Biotinylated Mouse IL-2 Protein) was used to stimulate mouse splenocytes. The cells were stained with: Brilliant Violet 421™ anti-mouse NK-1.1 Antibody, APC anti-mouse CD4 Antibody, and/or Alexa Fluor 700 anti-mouse CD8a Antibody, and then subjected to flow cytometry analysis.

[3] = IL2RB/IL2RG/IL15/IL15RA four-gene humanized homozygous mice (H/H)

Substance: Human IL2: Human IL-2 Protein, Tag Free, purchased from ACROBiosystems
- T cell pSTAT5 expression ([1]; IL2RB/IL2RG double-gene humanized heterozygous mice (H/+; H/+)): 35.7%
- T cell pSTAT5 expression ([1]; IL2RB/IL2RG double-gene humanized homozygous mice (H/H; H/H)): 33.7%
- phosphorylation of STAT5 after stimulation (in words) ([1]; spleen cells of +/+, H/+, H/+ and H/H, H/H mice): phosphorylation of STAT5 can be detected
- T cell pSTAT5 expression ([1]; wild-type C57BL/6 mice (+/+)): 26.6%
- pSTAT5 expression (CD4+ T cell) [2, 3]: 23.8%
- pSTAT5 expression (CD8a+ cell) [2, 3]: 93.5%
- pSTAT5 expression (NK1.1+ cell) [2, 3]: 81.9%
- phosphorylated expression of STAT5 after stimulation (in words) ([2]; splenocytes of +/+ and four-gene humanized homozygous (H/H) mice, 10 μg/mL): phosphorylated expression of STAT5 was detected
- pSTAT5 expression (CD4+ T cell) ([2]; wild-type C57BL/6 mice (+/+)): 55.2%
- pSTAT5 expression (CD8a+ cell) ([2]; wild-type C57BL/6 mice (+/+)): 94.5%
- pSTAT5 expression (NK1.1+ cell) ([2]; wild-type C57BL/6 mice (+/+)): 83.2%

From patent US20250302016A1, “GENETICALLY MODIFIED NON-HUMAN ANIMAL WITH HUMAN OR CHIMERIC GENES” (Biocytogen Pharmaceuticals (Beijing) Co., Ltd., priority 2022, published 2025)
